This is an account of results in PMC9308409 (Communications Biology, 2022).

pIC50: −log10 of the molar value.

Test [1] has as its target human TPC1^PM F692H mutant (Homo sapiens, UniProt Q9ULQ1, F692H/I12A/L11A). As to the kind of experiment: cell-based. The protocol: (§1) After 24 h of transfection, human TPC1^PM or TPC2^PM channel currents were acquired at room temperature using an EPC-10 amplifier and PatchMaster software (HEKA) or a MultiClamp 700B amplifier and pCLAMP software (Axon Instruments). […] Patch pipettes were polished with a resistance of 2–3 MΩ for recording. Similarly, for whole-cell recording to allow inhibitor application on the extracellular side, the K^+-based solution was used as the pipette solution, and the Na^+-based solution was used in the bath.

Test [2] deals with human TPC1 L11A/I12A (TPC1^PM) (Homo sapiens, UniProt Q9ULQ1, I12A/L11A). As to the kind of experiment: cell-based. The protocol:
as §1

Setting [3] is: TPC1, read-out: Normlized inhibition, individual cells.

As to `Nc1ccc(C(=O)Nc2cccc(-c3nc(N4CCOCC4)c4oc5ncccc5c4n3)c2)cn1` [YM201636], the results for the pIC50 in test [1] and in test [2] were approximately 5.64 and less than 4.70, respectively. Also, the inhibition at 1 µM in test [1] (setting [3]) turned out to be 40.8%. The inhibition at 5 µM in test [1] (setting [3]) is 58.4%; in test [2] (setting [3]), 26.1%. For the same molecule, the inhibition at 21.39 µM in test [1] (setting [3]) is 68.9%; in test [2] (setting [3]) it was 33.5%.
